# From publication PMC11089561, “Structural Investigations of Phthalazinone Derivatives as Allosteric Inhibitors of Human DNA Methyltransferase 3A” (ACS Medicinal Chemistry Letters, 2024)
# Target: T1, DNMT3A_CD (catalytic domain of DNMT3A) (Homo sapiens, UniProt Q9Y6K1)
# T1 construct: The catalytic domain of DNMT3A (residues 634 -912) were used for all experiments; made in house; host or cells: E. coli NiCo21 (DE3) (NEB)
# Assay: In vitro methylation assay, IC50 determination ([3H]-SAM, poly dI-dC)
# Format: biochemical
# Settings: ratio of IC50 values, % of 1a
# Excerpt: a. Figure S1. Dose response curves for compounds 1a-14 S3 […]
# a. Figure S2. Double reciprocal plots of compounds 1a, 3, 4, 5, and 10 S4 […]
# 5) Chemical Synthesis and Compound Characterization of Compounds 1a-14 S6-S27 […]
# 8) NMR Spectra for Compounds 4-14 S32-S53
# Expression and Purification of DNMT3A_CD
# The catalytic domain of DNMT3A (residues 634 -912) were used for all experiments […]
# DNMT3A_CD was expressed in NiCo21 (DE3) cells (NEB) using a codon optimized plasmid pET28a-hDNMT3A_CD (∆1-611). Cell cultures were grown in LB medium at 37 °C to an OD600 = 0.8. Cultures were cooled to 25 °C, then expression was induced by the addition of 1 mM IPTG (Gold Biotechnology). Cells were harvested by centrifugation after 5 hours and flash frozen in liquid nitrogen for storage at -80 °C.
# Cells were resuspended in lysis buffer containing 50 mM K2HPO4/KH2PO4, 500 mM NaCl, 50 mM imidazole, 10% glycerol [v/v], 1 mM EDTA and 1 mM PMSF at pH 7.8.
# Sonication was used for lysis and the supernatant was collected after centrifugation at 18,000 x g for 1 hour. Lysates were applied to an ÄKTA start FPLC system (GE healthcare) and loaded onto a 1 mL HisTrap Excel column (Cytiva). The column was washed with 50 mL of lysis […]
# buffer and eluted with an identical buffer containing a higher imidazole concentration of 500 mM. Eluted protein was desalted with a 5 mL HiTrap Desalting column (Cytiva) and flash frozen in liquid nitrogen for storage at -80 °C. DNMT3A_CD concentration was determined using UV-vis with an extinction coefficient determined by protparam of 38,180 M-1 cm-1 to represent the monomeric state.
# In Vitro Methylation Assays
# Methylation assays were used to determine nanomolar amounts of methylated DNA product. Reactions were carried out in 50 mM K2HPO4/KH2PO4 at pH 7.8, 1 mM EDTA, 1 mM DTT, 0.2 mg/mL BSA, 20 mM NaCl, 150 nM DNMT3A_CD, 10 uM poly dI-dC (Sigma Aldrich), and 10 uM SAM (Sigma Aldrich) unless otherwise stated. The SAM cofactor was diluted with [3H]-SAM from PerkinElmer in 10 mM H2SO4. All inhibitors were dissolved and diluted in DMSO prior to addition to methylation reactions. Reactions with and without […]
# All reactions containing inhibitors were preincubated with DNMT3A and inhibitor for 1 hour. Reactions were activated with poly dI-dC to a final volume of 20 uL, then incubated at 37 °C for 1 hour. Reaction aliquots were spotted on Hybond-N+ membranes (GE healthcare), then washed with 50 mM K2HPO4/KH2PO4 at pH 7.8 and ethanol. Membranes were dried and counted using a Hidex LS 300 scintillation counter. […]
# Prism 10 and best-fit inhibition models were determined using an F-test (p < 0.0001). […]
# Determination of IC50 Value
# Percent activity of methylation assays was determined by comparing activities of assays with inhibitor to assays without inhibitor. Sigmoidal dose-response curves of percent activity vs compound concentration were fitted in Prism 10. The data was best-fit using Hill slope coefficient constrained to a value of -2. All assays were performed in triplicate, with additional repetitions added as necessary. […]
# Figure S1: Dose response curves IDH compounds 1a-14 (A = 1-4, B = 5-8, C = 9-11, D = 12- […]
# 14). Reactions consisted of 150 nM DNMT3A, 10 uM SAM, and 10 uM poly dI -dC. The data […]
# points represent the […]
# (1 picture or pasted object on this page, not shown here)
row,SMILES,Potency relative to lead compound 1a [%]
1,COc1ccc(C2=NN(C3CCCCCC3)C(=O)[C@@H]3CC=CC[C@H]23)cc1OCCCCOc1ccc(C#N)cc1 [Compound 2],≤ 4
2,COc1ccc(C2=NN(C3CCCCCC3)C(=O)[C@@H]3CC=CC[C@H]23)cc1OCCCCOc1ccc(C(=O)O)cc1 [Compound 3],60
3,O=C1[C@@H]2CC=CC[C@@H]2C(c2cccc(OCCCCOc3ccc(-c4nn[nH]n4)cc3)c2)=NN1C1CCCCCC1 [Compound 4],140
4,CN1N=C(c2cccc(OCCCCOc3ccc(-c4nn[nH]n4)cc3)c2)[C@H]2CC=CC[C@H]2C1=O [Compound 5],34
5,O=C1[C@@H]2CC=CC[C@@H]2C(c2cccc(OCCCCOc3ccc(-c4nn[nH]n4)cc3)c2)=NN1Cc1ccccc1 [Compound 6],107
6,O=C1[C@@H]2CC=CC[C@@H]2C(c2cccc(OCCCCOc3ccc(-c4nn[nH]n4)cc3)c2)=NN1Cc1ccc(F)c(F)c1 [Compound 7],77
7,O=C1[C@@H]2CC=CC[C@@H]2C(c2cccc(OCCCOc3ccc(-c4nn[nH]n4)cc3)c2)=NN1C1CCCCCC1 [Compound 8],127
8,O=C1[C@@H]2CC=CC[C@@H]2C(c2cccc(OCCCCCOc3ccc(-c4nn[nH]n4)cc3)c2)=NN1C1CCCCCC1 [Compound 9],155
9,O=C1[C@@H]2CC=CC[C@@H]2C(c2cccc(OC/C=C\COc3ccc(-c4nn[nH]n4)cc3)c2)=NN1C1CCCCCC1 [Compound 10],127
10,O=C1[C@@H]2CC=CC[C@@H]2C(c2cccc(OC/C=C/COc3ccc(-c4nn[nH]n4)cc3)c2)=NN1C1CCCCCC1 [Compound 11],107
11,O=C(COc1cccc(C2=NN(C3CCCCCC3)C(=O)[C@@H]3CC=CC[C@H]23)c1)Nc1ccc(-c2nn[nH]n2)cc1 [Compound 12],36
12,c1ccc(OCCCCOc2ccc(-c3nn[nH]n3)cc2)cc1 [Compound 14],≤ 14
